Reference: paper PMC9064305

Target: Recombinant human ADAMTS6-Ct (residues 558-1117) (human) (UniProt Q9UKP5)
Assay: SPR; ADAMTS6-Ct amine-coupled to a CM5 chip (1700 RU), FBN2-Nt and FBN2-Ct as analytes; Biacore 3000, 25 °C, 10 mM Hepes pH 7.4, 0.15 M NaCl, 2 mM CaCl2, 0.005% or 0.05% P20, 30 μl/min; steady state affinity method

Row | Kd | Substance
1 | 80 nM | Human fibrillin-2 recombinant C-terminal half (rFBN2-C) (from UniProt P35556 78-2779) (domain or fragment)
2 | 43 nM | Human fibrillin-2 recombinant N-terminal half (rFBN2-N) (from UniProt P35556 78-2779) (domain or fragment)
